Measured values as given in US8901177B2, “Method of treating bladder disorders” (Targacept, Inc., priority 2012, dated 2014).

Chains of the proteins cited; added tags and fusions are not shown. Residues count along the entry.
UniProt P30926, 22-498: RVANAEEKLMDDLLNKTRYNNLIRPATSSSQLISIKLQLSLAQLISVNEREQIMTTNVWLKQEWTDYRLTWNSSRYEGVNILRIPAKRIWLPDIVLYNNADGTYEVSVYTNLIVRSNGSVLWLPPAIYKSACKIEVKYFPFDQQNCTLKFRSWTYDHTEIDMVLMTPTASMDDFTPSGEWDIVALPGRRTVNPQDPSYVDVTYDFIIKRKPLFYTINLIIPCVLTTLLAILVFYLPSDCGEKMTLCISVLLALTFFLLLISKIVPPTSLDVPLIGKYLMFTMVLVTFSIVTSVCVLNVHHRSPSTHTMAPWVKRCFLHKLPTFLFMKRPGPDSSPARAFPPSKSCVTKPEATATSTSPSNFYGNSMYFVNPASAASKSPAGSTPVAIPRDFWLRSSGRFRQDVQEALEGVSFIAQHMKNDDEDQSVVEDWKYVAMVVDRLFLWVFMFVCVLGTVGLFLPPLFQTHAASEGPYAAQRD
UniProt P32297, 32-505: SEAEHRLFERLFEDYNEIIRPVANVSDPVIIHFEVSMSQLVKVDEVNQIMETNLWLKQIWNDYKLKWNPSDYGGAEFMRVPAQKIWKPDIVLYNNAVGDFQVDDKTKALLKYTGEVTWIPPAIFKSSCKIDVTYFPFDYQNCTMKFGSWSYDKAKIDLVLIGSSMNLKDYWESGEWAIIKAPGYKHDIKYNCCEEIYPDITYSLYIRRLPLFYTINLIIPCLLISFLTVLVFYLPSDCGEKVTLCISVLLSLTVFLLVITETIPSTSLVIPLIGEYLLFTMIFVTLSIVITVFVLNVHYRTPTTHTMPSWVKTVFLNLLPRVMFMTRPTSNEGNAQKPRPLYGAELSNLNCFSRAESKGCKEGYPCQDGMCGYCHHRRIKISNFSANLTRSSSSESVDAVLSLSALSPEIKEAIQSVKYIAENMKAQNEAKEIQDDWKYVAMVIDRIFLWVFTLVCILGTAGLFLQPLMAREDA

Biological target: T1, human α3β4 channels (Homo sapiens, UniProt P30926+P32297)
T1 construct: host or cells: CHO cells
Experiment: Use-dependent inhibition of human α3β4 channels expressed in CHO cells (Dynaflow electrophysiology)
Format: cell-based
Settings: 30 nM compound + 30 μM ACh, first co-application; control = 100; SEM and n in next columns
Experimental: There was an assumption that the dependence on the number of co-applications would be the most relevant to clinical concentrations, since upon the time of exposure in vivo, the number of open channels could reach substantial numbers; perhaps due to channel spontaneous opening, flickering, and endogenous transmitter release as a result of brain activity. All experiments were performed using a conventional Dynaflow (Cellectricon Inc.) electrophysiological system. Dynaflow settings: To achieve continuous exposure to the drug we used following Dynaflow chip loading. An example of standard chip loading for use-dependent experiments with example for 30 μM ACh and 0.1 μM of TC-05231 (racemic mecamylamine). For the following experiments, ACh always consisted of 30 μM and concentrations of compounds were, 0.03, 0.1, 0.3 and 1.0 (μM). FIG. 13 illustrates the settings.
Applications were performed by positioning the cell in front of channel #1 for 1 second, followed by channel #3, then back to channel #1 by rapidly moving the Dynaflow chip, which consisted of both the laminar flow from the channels and the entire bath solution. […]

peak current normalized to 10th ACh application (positive modulation, FIG. 16): 99.29
Structure (SMILES): CNC1(C)C2CCC(C2)C1(C)C.Cl (racemic) [TC-5231, N,2,3,3-tetramethylbicyclo[2.2.1]heptan-2-amine hydrochloride]
